Experiment: Phase 1 absorption, metabolism and excretion study of [14C]-ecopipam, single oral capsule dose
Type: in vivo, human
Conditions: single oral dose 200 mg [14C]-ecopipam HCl

Percentage of dose excreted in urine as analyte (geometric mean): 0.115%
Structure (SMILES): CN1CCc2cc(Cl)c(O)cc2[C@H]2c3ccccc3CC[C@@H]21 [ecopipam, (−)-trans-6,7,7a,8,9,13b-hexahydro-3-chloro-2-hydroxy-N-methyl-5H-benzo [d]-naphtho-[2,1-b]azepine]

From US12594281B2, “Pharmaceutical dosage forms and methods of use” (EMALEX BIOSCIENCES, INC., priority 2024, dated 2026)
